Assay results: US12516292B2, “Methods of producing modified natural killer cells and methods of use” (The United States of America, as represented by the …, priority 2016, dated 2026)

Experiments:
primary human NK cells [1] = test: Lentiviral transduction of primary human NK cells, eGFP/GFP expression by FACS; assay type: cell-based
primary human NK cells [2] = test: Viability of NK cultures before and after transduction (trypan blue / flow cytometry); assay type: cell-based; conditions: 1-3 days of priming with 500 IU/ml IL-2 (FIG. 14)

IL-2: recombinant human IL-2 (Roche), cytokine used to prime NK cells
transduction efficiency versus days of priming (primary human NK cells [1]; 500 IU/ml IL-2 for 1-6 days prior to transduction, GFP transgene (FIG. 14)): increased with 1-4 days of priming, then decreased slightly at days 5 and 6 | transduction efficiency (primary human NK cells [1]; priming with 500 IU/ml IL-2 for two or more days prior to transduction, irradiated LCLs 10:1 added two days post-transduction (FIG. 4)): ≥ 25% | cell viability (primary human NK cells [2]): ~100%
